# According to US20170370933A1, “METHODS AND COMPOSITIONS FOR IMMUNOMODULATION” (Nodality, Inc., priority 2013, published 2017):
# System: PD-1 (p-ERK in PD1+ cells)
# Assay: PD-1 functional status in PD-1-induced healthy PBMC (p-ERK)
# Assay type: cell-based, human
# Details: PD1+ gated cells; anti-CD3, anti-CD28 plus biotinylated recombinant PDL1, avidin cross-linked
# Procedure: In brief, PBMCs were isolated from healthy blood donors according to approved protocol. PBMCs were first cultured in RPMI 1640 plus 10% FBS with anti CD3 and anti CD28 for 48 hours to increase levels of surface expression of PD-1. Subsequently, cells were washed and rested overnight in RPMI 1640 plus 10% FBS. For stimulation experiments, PBMC (1.5×10e5 cells) were incubated with anti-CD3, anti-CD28 and anti IgG Biotinylated Abs or anti-CD3, anti-CD28 biotinylated Abs plus biotinylated recombinant PDL1. Antibodies were then cross-linked with Avidin. At a certain time point, the reaction was stopped and the cell fixed with PFA 2.4%. Cells were them processed for SCNP analysis for selected read-outs. […] All cells were gated so that PD1+ cells were used.
substance,measurement,value
"recombinant PDL1: biotinylated recombinant PDL1, IMR modulator",p-ERK in cells activated with TCR activator in the presence of IMR modulator,low levels of p-ERK
